Consider nine compounds from US9139585B2 (Merck Sharp & Dohme Corp., priority 2011, dated 2015).

The chains behind the UniProt entries cited, without tags or fusion partners.
UniProt P48048, whole entry, species assumed: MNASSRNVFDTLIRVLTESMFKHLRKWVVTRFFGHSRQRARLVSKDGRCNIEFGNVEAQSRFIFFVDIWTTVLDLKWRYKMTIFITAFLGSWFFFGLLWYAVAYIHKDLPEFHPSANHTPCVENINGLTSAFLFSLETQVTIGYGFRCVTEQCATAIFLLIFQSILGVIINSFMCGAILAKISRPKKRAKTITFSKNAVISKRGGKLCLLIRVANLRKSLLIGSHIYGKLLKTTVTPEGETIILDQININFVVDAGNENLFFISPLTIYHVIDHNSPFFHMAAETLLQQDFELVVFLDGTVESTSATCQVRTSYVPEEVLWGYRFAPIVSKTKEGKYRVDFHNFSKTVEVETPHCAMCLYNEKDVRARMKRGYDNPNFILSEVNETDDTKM

Broadly, the IC50 is the midpoint of a concentration-inhibition curve.

One experiment addresses hROMK (hKir1.1) (Homo sapiens (Human), UniProt P48048). Put plainly: Thallium Flux Assay (ROMK channel functional thallium flux, FLIPR-Tetra). It is filed as cell-based. As to conditions: HEK293 cells stably expressing hROMK (hKir1.1). The method, then:
Another ROMK functional assay makes use of the ability of thallium to permeate through open ROMK channels and increase the fluorescence of a dye previously loaded into the cells. Under control conditions, cells loaded with dye and exposed to thallium-containing medium display a time-dependent increase in fluorescence, the rate of which depends on number of functional channels. When cells are incubated in the presence of a channel inhibitor, the increase in fluorescence is attenuated in a concentration-dependent manner, and IC50 values of inhibition by compounds can be accurately determined. This assay has been established with cell lines expressing either human, or rat ROMK channels, and operates in 384-well format.
HEK293 cells stably expressing hROMK (hKir1.1) were grown at 37° C. in a 10% CO2 humidified incubator in complete growth media: Dulbecco's Modified Eagle Medium supplemented with non-essential amino acids, Penicillin/Streptomycin/Glutamine, G418 and FBS. At >80% confluency, the media was aspirated from the flask and the sample was rinsed with 10 ml Calcium/Magnesium-free PBS. […] To dislodge the cell, the side of the flask was gently banged with a hand. The cells were triturated completely and then transferred to 25 ml complete media. The sample was then centrifuged at 1,500 rpm for 6 minutes, followed by resuspension in complete growth media and then cell concentration was determined. […] Under ideal growth conditions and appropriate tissue culture practices, this cell line is stable for 40-45 passages.
FluxOR Kit Components (Invitrogen F10017)
• FluxOR™ Reagent (Component A) • FluxOR™ Assay Buffer (Component B)—10× Concentrate • PowerLoad™ Concentrate (Component C)—100× Concentrate • Probenecid (Component D)—Lyophilized sample is kept at −20° C. Water soluble, 100× after solubilization in 1 ml water. […] Store at 4° C. • Thallium sulfate (Tl2SO4) Concentrate (Component G)—50 mM in water. Store at 4° C. • DMSO (dimethyl sulfoxide, Component H)—1 ml (100%) Reagent Preparation— FluxOR Working Solutions • 1000× FluxOR™ Reagent: Reconstitute a vial of component A in 100 μl DMSO; Mix well; Store 10 μl aliquots at −20° C. • 1× FluxOR™ Assay Buffer: Dilute Component B 10-fold with water; Adjust pH to 7.4 with Hepes/NaOH; Filter and store at 4° C. • Probenecid/Assay Buffer: 100 ml of 1× FluxOR™ Assay Buffer; 1 ml of reconstituted component D; Store at 4° C. • Loading Buffer (per microplate): 10 μl 1000× FluxOR™ Reagent; 100 μl component C; 10 ml Probenecid/Assay Buffer • Compound Buffer (per microplate): 20 ml Probenecid/Assay Buffer; 0.3 mM ouabain (10 mM ouabain in water can be stored in amber bottle/aluminum foil at room temperature);
Test compound • 1× FluxOR™ Chloride-Free Buffer: Prepare 1× working solution in water. Can be stored at room temperature • Stimulant Buffer (prepared at 5× final concentration in 1× FluxOR™ Chloride-Free Buffer): 7.5 mM Thallium sulfate and 0.75 mM Potassium sulfate (to give a final assay concentration of 3 mM Thallium/0.3 mM Potassium). Store at 4° C. when not in use. If kept sterile, this solution is good for months. Assay Protocol—
The ROMK channel functional thallium flux assay is performed in 384 wells, using the FLIPR-Tetra instrument. HEK-hKir1.1 cells are seeded in Poly-D-Lysine microplates and kept in a 37° C.-10% CO2 incubator overnight. On the day of the experiment, the growth media is replaced with the FluxOR™ reagent loading buffer and incubated, protected from light, at ambient temperature (23-25° C.) for 90 min. The loading buffer is replaced with assay buffer±test compound followed by 30 min incubation at ambient temperature, where the Thallium/Potassium stimulant is added to the microplate.
• 1. Seed HEK-hKir1.1 cells (50 μl at 20,000 cells/well) in 384-well PDL coated Microplates • 2. Allow cells to adhere overnight in humidified 37° C./10% CO2 incubator • 3. Completely remove cell growth media from microplate and replace with 25 μl loading buffer • 4.

In another experiment the target is Kir1.1 (ROMK1) (Homo sapiens (Human), UniProt P48048). In words: Electrophysiology Assay (whole cell voltage clamp, IonWorks Quattro). As to conditions: Chinese hamster ovary cells stably expressing Kir1.1; block during voltage step to 0 mV; read-out: EP Assay IC50. The class given is cell-based. The source says:
Several assays may be used to measure functional inhibition of the ROMK channel by compounds of the instant invention. One assay that can be used is an electrophysiology assay that measures the electrical current that is generated as potassium permeates through the channel.
Block of Kir1.1 (ROMK1) currents was examined by whole cell voltage clamp (Hamill et. al. Pfluegers Archives 391:85-100 (1981)) using the IonWorks® Quattro automated electrophysiology platform (Molecular Devices, Sunnyvale, Calif.). Chinese hamster ovary cells stably expressing Kir1.1 channels were maintained in T-75 flasks in cell culture media in a humidified 10% CO2 incubator at 37° C. Prior to an experiment, Kir1.1 expression was induced by overnight incubation with 1 mM sodium butyrate. On the day of the experiment, cells were dissociated with 2.5 ml of Versene™ (Invitrogen 15040-066) for approximately 6 minutes at 37° C. and suspended in 10 ml of bath solution containing (in mM): 150 NaCl, 10 KCl, 2.7 CaCl2, 0.5 MgCl2, 5 HEPES, pH 7.4. After centrifugation, the cell pellet was resuspended in approximately 4.0 ml of bath solution and placed in the IonWorks® instrument. The intracellular solution consisted of (in mM): 80 K gluconate, 40 KCl, 20 KF, 3.2 MgCl2, 3 EGTA, 5 Hepes, pH 7.4. Electrical access to the cytoplasm was achieved by perforation in 0.13 mg/ml amphotericin B for 4 minutes. Amphotericin B (Sigma A-4888) was prepared as a 40 mg/ml solution in DMSO.
Voltage protocols and current recordings were performed using the IonWorks® HT software/hardware system. Currents were sampled at 1 kHz. No correction for liquid junction potentials was used. The test pulse, consisting of a 100 ms step to 0 mV from a holding potential of −70 mV, followed by a 100 ms voltage ramp from −70 mV to +70 mV, was applied before and after a 6 minutes compound incubation period. Test compounds were prepared by diluting DMSO stock solutions into the bath solution at 3× the final concentration and placed in the instrument in 96-well polypropylene plates. Current amplitudes were measured using the IonWorks® software. To assess compound potency, the fractional block during the voltage step to 0 mV was calculated in Microsoft® Excel (Microsoft, Redmond, Calif.), and dose-response curves were fitted with Igor Pro 4.0 (WaveMetrics, Lake Oswego, Oreg.).
On the technique in general: The patch-clamp technique gives a direct electrical read-out from membranes.

As for `Cc1c([C@@H](O)CN2C[C@H]3C[C@@H]2CN3C[C@H](O)c2ccc3c(c2)C[C@@H](C)OC3=O)ccc2c1COC2=O` (single isomer, unassigned) [Example 41A], at hROMK (hKir1.1), half-maximal inhibition (IC50) was put at 66.7 nM.
On to `Cc1c([C@@H](O)CN2C[C@@H]3C[C@H]2CN3CC(O)c2ccc3c(c2)C[C@H](C)OC3=O)ccc2c1COC2=O` (single isomer, unassigned) [Example 40A], for which the IC50 was found to be 36.2 nM against hROMK (hKir1.1) and 140 nM at Kir1.1 (ROMK1).
Taken in the same sequence, the figures for `Cc1c([C@@H](O)CN2C[C@H]3C[C@@H]2CN3C[C@H](O)c2ccc3c(c2)C[C@H](C)OC3=O)ccc2c1COC2=O` (single isomer, unassigned) [Example 42A] were 175 nM and 78 nM.
Taken in the same sequence, the figures for `Cc1c([C@@H](O)CN2C[C@H]3C[C@@H]2CN3C[C@H](O)c2ccc3c(c2)C[C@H](C)OC3=O)ccc2c1COC2=O` (single isomer, unassigned) [Example 42B] were 45.1 nM and 116 nM.
Taken in the same sequence, the figures for `Cc1c([C@@H](O)CN2C[C@@H]3C[C@H]2CN3C[C@H](O)c2ccc3c(c2)C[C@@H](C)OC3=O)ccc2c1COC2=O` (single isomer, unassigned) [Example 39A] were 446 nM and 150 nM.
Compound `Cc1c([C@@H](O)CN2C[C@H]3C[C@@H]2CN3C[C@H](O)c2ccc3c(c2)C[C@@H](C)OC3=O)ccc2c1COC2=O` (single isomer, unassigned) [Example 41B] registered a concentration for half-maximal inhibition (IC50) on hROMK (hKir1.1) of 33.3 nM.
As to `Cc1cc(S(=O)(=O)N2C[C@@H]3C[C@H]2CN3C[C@H](O)c2ccc3c(c2C)COC3=O)ccc1-n1cnnn1` [Example 14, 5-((R)-1-Hydroxy-2-((1S,4S)-5-(3-methyl-4-(1H-tetrazol-1-yl)phenylsulfonyl)-2,5-diazabicyclo[2.2.1]heptan-2-yl)ethyl)-4-methylisobenzofuran-1(3H)-one], the IC50 turned out to be 216 nM against hROMK (hKir1.1) and 270 nM on Kir1.1 (ROMK1).
On hROMK (hKir1.1), `Cc1c([C@@H](O)CN2C[C@@H]3C[C@H]2CN3CC(O)c2ccc3c(c2)C[C@H](C)OC3=O)ccc2c1COC2=O` (single isomer, unassigned) [Example 40B] yielded a 50% inhibitory concentration (IC50) of 73.9 nM.
Still for that read-out and setting: with `Cc1c([C@@H](O)CN2C[C@@H]3C[C@H]2CN3C[C@H](O)c2ccc3c(c2)C[C@@H](C)OC3=O)ccc2c1COC2=O` (single isomer, unassigned) [Example 39B] the figure was 938 nM.
